Structures are written as SMILES.

For assay [1], the species on record is Homo sapiens. Kind of assay: Selectivity ratio of Ki for human CDK5/p25 to Ki for human CDK2/Cyclin E1.
The species entered for assay [2] is Homo sapiens. Description: Selectivity ratio of Ki for human CDK7/Cyclin H/MAT1 to Ki for human CDK2/Cyclin E1.
For assay [3], the species on record is Homo sapiens. Description: Selectivity ratio of Ki for human CDK9/CyclinT1 to Ki for human CDK2/Cyclin E1.

With `CC(C)c1cnn2c3nc(nc12)N(CC1CNC1)CCCCCOc1ccccc1CN3`, the figures for the Ratio Ki in the assay listed under Homo sapiens [1], in the assay listed under Homo sapiens [2] and in the assay listed under Homo sapiens [3] were 10, 35 and 20, respectively.
Taken in the same sequence, the figures for `CC(C)c1cnn2c3nc(nc12)N(CC1CNC1)CCCCCOc1cc(S(C)(=O)=O)ccc1CN3` were 15.8, 54.7 and 12.8.

Values taken from ChEMBL document CHEMBL5550116, “Discovery of novel macrocyclic derivatives as potent and selective cyclin-dependent kinase 2 inhibitors” (Bioorg Med Chem, 2024).
